Assays:
[1] = target: T1, KOP receptor (Homo sapiens, UniProt P41145); experiment: 35S-GTPγS coupling, inhibition; type: biochemical
[2] = target: T1, KOP receptor; experiment: ERK 1/2 activation, inhibition; type: cell-based

Sequences of proteins named here, by UniProt entry; tags and fusion partners are left off. A change or cut given only in a name is not applied to a line headed by its entry.
UniProt P41145: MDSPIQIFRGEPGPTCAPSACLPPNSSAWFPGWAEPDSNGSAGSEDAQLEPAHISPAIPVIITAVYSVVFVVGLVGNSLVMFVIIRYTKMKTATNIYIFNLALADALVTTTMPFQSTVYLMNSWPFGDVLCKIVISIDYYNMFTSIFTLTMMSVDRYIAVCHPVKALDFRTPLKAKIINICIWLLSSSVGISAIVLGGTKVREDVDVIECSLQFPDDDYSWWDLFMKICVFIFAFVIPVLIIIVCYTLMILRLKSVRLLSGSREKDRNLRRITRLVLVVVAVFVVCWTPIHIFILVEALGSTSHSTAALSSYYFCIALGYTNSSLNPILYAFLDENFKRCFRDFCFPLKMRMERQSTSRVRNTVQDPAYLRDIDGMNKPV

In the case of `Oc1ccc2c3c1O[C@H]1c4[nH]c5c(c4C[C@@]4(O)[C@@H](C2)N(CC2CC2)CC[C@]314)C[C@@]1(O)[C@H]2Cc3ccc(O)c4c3[C@@]1(CCN2CC1CC1)[C@H]5O4` [Nor-BNI, reference compound], the “Imax (% NBNI)” value [1] was 101 ± 1 % NBNI and the “Imax (% NBNI)” value [2] was 100 ± 0.3 % NBNI.
